Laboratory results as given in ChEMBL document CHEMBL3886144, “Substituted-quinoxaline-type piperidine compounds and the uses thereof” (2014).

Chains of the proteins cited; added tags and fusions are not shown.
UniProt P41143, whole entry, looked up: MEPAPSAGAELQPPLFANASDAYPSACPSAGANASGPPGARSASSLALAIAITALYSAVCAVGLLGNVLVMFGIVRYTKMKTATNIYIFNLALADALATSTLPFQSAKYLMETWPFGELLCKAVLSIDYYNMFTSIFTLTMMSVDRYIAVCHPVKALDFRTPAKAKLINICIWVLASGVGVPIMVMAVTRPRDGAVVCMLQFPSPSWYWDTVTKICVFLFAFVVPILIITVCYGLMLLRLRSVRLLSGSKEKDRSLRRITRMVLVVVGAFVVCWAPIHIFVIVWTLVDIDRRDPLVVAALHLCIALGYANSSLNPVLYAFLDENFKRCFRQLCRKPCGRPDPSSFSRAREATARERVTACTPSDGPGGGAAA
UniProt P35372, whole entry, looked up: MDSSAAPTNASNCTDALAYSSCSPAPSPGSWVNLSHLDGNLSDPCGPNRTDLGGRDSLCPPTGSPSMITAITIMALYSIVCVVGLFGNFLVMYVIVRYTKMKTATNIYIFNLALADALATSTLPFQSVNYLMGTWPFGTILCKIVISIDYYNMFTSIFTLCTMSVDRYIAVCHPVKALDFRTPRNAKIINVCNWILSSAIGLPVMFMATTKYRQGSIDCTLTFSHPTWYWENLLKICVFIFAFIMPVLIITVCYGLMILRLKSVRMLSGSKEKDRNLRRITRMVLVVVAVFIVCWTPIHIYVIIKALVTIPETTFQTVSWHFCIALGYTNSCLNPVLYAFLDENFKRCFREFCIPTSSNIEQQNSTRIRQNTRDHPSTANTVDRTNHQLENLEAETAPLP

Assays:
[1] = target: Delta-type opioid receptor (Homo sapiens, UniProt P41143); test: Radioligand Binding Assay: Radioligand dose-displacement assays used 0.2nM [3H]-Naltrindole (NEN; 33.0 Ci/mmole) with 10-20ug membrane protein (recombinant delta opioid receptor expressend in CHO-K1 cells; Perkin Elmer) in a final volume of 500uL binding buffer (5mM MgCl2, 5% DMSO, 50mM Trizma base, pH 7.4). Non-specific binding was determined in the presence of 25 uM unlabeled naloxone. All react
Mu-type opioid receptor = Mu-type opioid receptor (Homo sapiens, UniProt P35372); test: Radioligand Binding Assay: Radioligand dose-displacement binding assays for u-opioid receptors used 0.2nM[3H]-diprenorphine (NEN, Boston, Mass.), with 5-20mg membrane protein/well in a final volume of 500 uL binding buffer (10mM MgCl2, 1mM EDTA, 5% DMSO, 50mM HEPES, pH 7.4). Reactions were carried out in the absence or presence of increasing concentrations of unlabeled naloxone. All reactions were

Row | SMILES | Ki [1] [µM] | Ki (Mu-type opioid receptor) [µM]
1 | Cc1cc(C)nc(SCc2ccc(C(=O)NN/C=C3\C=CC=C(O)C3=O)cc2)n1 | 57.7 | 
2 | N#C[C@@H]1CCCN1C(=O)[C@@H]1CC[C@@H](CO)N1 | 76.3 | 13.5
